The values below come from patent US6949581B2, “Water-soluble mono-PEGylated tetrapyrrole derivatives for photodynamic therapy and method of production” (CeramOptec Industries, Inc., priority 2003, dated 2005).

In this data set the test system is HeLa (human cervix carcinoma cells). In kind it is cell-based. The method, then: To determine dark toxicity of the water-soluble derivative (35) and water-soluble salt of pheophorbide a (5) with N-methyl-D-glucamine (prepared according to U.S. application Ser. […] The cells were washed with pure DMEM and treated with 10% formalin for 15 minutes at room temperature. The cells were twice washed with water, incubated for 15 minutes with 0.1% solution of crystal violet (50 μl/well), then washed with water and treated with ethanol (100 μl/well). Optical densities of ethanol solutions formed were determined with Specord 100 (Analytik Jena AG, Germany) spectrophotometer at 594 nm to monitor cell survival. Values are expressed as percentages of non-incubated controls. For each incubation concentration eight experiments were performed.

Consider “salt of pheophorbide a (5) with N-methyl-D-glucamine”, for which the “IC50 dark toxicity (cytotoxicity)” value is 20 µg/mL and the “IC80 dark toxicity (cytotoxicity)” value was 100 µg/mL.
